The values below come from EP0557345B1, “1,3-BIS- 3-(MONO- OR POLY-HYDROXY)ACYLAMINO-5-(MONO- OR POLY-HYDROXYALKYL)AMINOCARBONYL-2,4,6-TRIIODO-BENZOYL-AMINO]-HYDROXY- OR HYDROXYALKYL-PROPANES, THEIR METHODS OF PREPARATION AND X-RAY CONTRAST MEDIA CONTAINING THEM” (DIBRA S.p.A., priority 1990, dated 1992).

The series in a line: Solubility in water. It is filed as physicochemical.

Where only a bound is given, the exact number is not on record here.

Turning to “1,3-bis-[N-methyl-N-[3-(L-2-hydroxy-propionyl)amino-5-(1,3-dihydroxy-isopropyl)aminocarbonyl-2,4,6-triiodo-benzoyl]amino]-2-hydroxy-propane [Example 7]”, for the setting “at 22°C”, the “Solubility in H₂O” value is reported as more than 100 % w/v.

“1,3-bis-[N-methyl-N-[3-[N-methyl-N-(L-2-hydroxy-propionyl)]amino-5-(1,3-dihydroxy-isopropyl)aminocarbonyl-2,4,6-triiodo-benzoyl]amino]-2-hydroxy-propane [Example 27]”: the “Solubility in H₂O” value (at 20°C) is 100 % w/v.

With “1,3-bis-[N-methyl-N-[3-hydroxyacetylamino-5-[N-methyl-N-(1,3-dihydroxy-isopropyl)]aminocarbonyl-2,4,6-triiodo-benzoyl]amino]-2-hydroxy-propane [Example 18]”, the “Solubility in H₂O” value (at 25°C) was found to be 100 % w/v.

“1-[3-(L-2-hydroxy-propionyl)amino-5-(1,3-dihydroxyisopropyl)aminocarbonyl-2,4,6-triiodo-benzoyl-amino]-3-[3-(L-2-hydroxy-propionyl)amino-5-[N-methyl-N-(D-1-deoxy-glucitol)]aminocarbonyl-2,4,6-triiodo-benzoyl-amino]-2-hydroxy-propane [Example 13]”: the “Solubility in H₂O” value (at 20°C) is reported as more than 100 % w/v.
